ERG-DNA inh: blocks human ERG Ets domain binding to DNA; P11308; fluorescence polarization, His-ERG Ets domain / labelled DNA; Potency, µM (top dose mostly 76.9 µM), inactives show at the top dose FP activity, negative = inhibition, usual class: inhibitors; 0.028% of 370,000 active; active = well fitted inhibition curve with a large enough effect in the polarisation, with a control signal flat; inconclusive = small, poorly fitted or top-dose-only effect, or effect the other way, or a change in a side signal; inactive = no such curve, though single readings can be large or run the other way; the % refers to the polarisation;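 also: polarization taken with two DNA probes labelled with fluorescein and Texas red; potency is read from the fitted curve at half-maximal effect; % of control where 0% means no effect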
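His-tagged ERG Ets domain (1 uM in the protein solution; 300mM KCl, 50mM Tris-HCl, 1mM EDTA, 1mM DTT, pH 7.5) received compound, then a probe mix of 5 nM fluorescein-DNA and 100nM Texas-615-DNA. Fluorescence polarization was read for both dyes.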
ALOX12 inh: inhibitors of human 12S-lipoxygenase ALOX12 | Potency, µM (series often up to 108 µM), without a hit: at the highest dose activity change, negative = inhibition, usual class: inhibitors | 1.1% of 580,000 active | P18054 | purified 12hLO, xylenol orange hydroperoxide absorbance; also: potency is read from the fitted curve at half-maximal effect; % is scaled to controls: 0 for no effect and ±100 for the full control effect
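Hydroperoxide product was detected by ferrous iron/xylenol orange as the 573 to 405 nm absorbance ratio. Arachidonic acid at 40 uM (final) was turned over for 30 min at room temperature by 150 nM human 12hLO, pH 7.0 Hepes buffer, after 15 min compound preincubation.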
PINK1 modulator: changes PINK1 expression. PINK1 immunofluorescence, high-content cytometry, 24 h. Potency, µM (series often up to 76.6 µM), without a hit: at the highest dose activation (PINK1 increase), actives largely listed as activators. 0.2% of 410,000 active. AID 624263; active = well fitted activation curve with a large enough effect; inconclusive = small, poorly fitted or top-dose-only effect; cell line not stated here; also: potency is read from the fitted curve at half-maximal effect; % of control where 0% means no effect; nearly all actives have a fitted effect of over 65% in size
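Decision-based qHTS: stable cells, 24 h exposure to five compound concentrations, CCCP as control. Fixed cells stained for PINK1 plus nuclear, mitochondrial and cell markers, cytometer read.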
miR-21 reporter: miR-21 reporter, rising signal; HeLa miR-21 FLuc reporter, luciferase, 48 h; Potency, µM (doses to about 38.3 µM), for inactives: at the highest dose reporter change, positive = more light; 340,000 tested, under 10 active; AID 2288; active = well fitted rising curve with a large enough effect; inconclusive = small, poorly fitted or top-dose-only effect; inactive = no such curve, though single readings can be large or run the other way;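 further: % of control where 0% means no effect; miR-21 action dims this reporter so a rising signal means less miR-21 action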
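Luminescence from a firefly luciferase reporter carrying a miR-21 binding site downstream, stably expressed under a CMV promoter in HeLa cells that make miR-21 endogenously, reports miRNA modulation after 48 h compound exposure up to approximately 40uM final.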
PTHR1 agonist: PTHR1 (human) receptor agonism; HEK293 GP2 PTHR1 cells, GloSensor cAMP luminescence, 1 h; Potency, µM (top dose mostly 115 µM), without a hit: at the highest dose activation, most hits filed as activators; AID 743266; Q03431; 0.075% of 410,000 active; also: potency is read from the fitted curve at half-maximal effect; nearly all actives have a fitted effect of over 55% in size
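HEK-293-derived GP2 cells expressing PTHR1 and a GloSensor cAMP reporter, 3,000/well, plated overnight, given luciferin plus IBMX (each 0.5 mM as added) for 1 h at 37 °C, then compound for 1 h at 37 °C. Luminescence was read after 15 min at room temperature.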
Giardia kill: Giardia lamblia killing | Giardia lamblia trophozoite viability | activity change, % at 7.66 µM, hits read low | 0.15% of 340,000 active | AID 540267; in the data active = activity change below about -80%; inconclusive = between about -30% and that limit;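 also: parasites exposed to compound for two days anaerobically before the ATP read; % is scaled to controls: 0 for no effect and ±100 for the full control effect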
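Media and compound were dispensed first, then trophozoites at 100 cells/well; plates sat 48 hrs at 37 deg C without oxygen before ATP luminescence reagent was added and read after 15-30 min at room temperature.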
Active calls of the source: *; i = inactive; ? = inconclusive; . = no result; [ ] = another dose, or the depositor's remark. Rows were chosen to be rich in hits. Some 1.3% of all compounds tested hit in one or more screens of this group. Unless noted, calls follow the shape of the dose curve; as a rule, active = well fitted curve in the direction sought with a large enough effect; inconclusive = small, poorly fitted or top-dose-only effect, or another doubt; inactive = no such curve, though single readings can be large; an effect the other way counts as inactive or inconclusive.

| Compound | PTHR1 agonist | miR-21 reporter | ALOX12 inh | PINK1 modulator | Giardia kill | ERG-DNA inh |
| --- | --- | --- | --- | --- | --- | --- |
| Brc1ccc(CN2CCN(Cc3c[nH]c4ccccc34)CC2)cc1 | -38% | 0% | ? | -2% | 9 | 3% |
| Cc1ccccc1N1CCN(Cc2c[nH]c3ccccc23)CC1 | 4µM* | 15% | ? | 1%[38.3 µM] | -12 | 4% |
| c1ccc2cc(CN3CCN(Cc4c[nH]c5ccccc45)CC3)ccc2c1 | . | . | 1.8µM* | . | . | . |
| COc1ccc(-c2nc(CS(=O)CC(=O)NCCc3ccc(OC)c(OC)c3)c(C)o2)cc1 (stereo not given) | i | -5% | -3% | -1% | 14 | 0% |
| COc1cccc(NC(=S)/C(=C(\[O-])c2cc(C)n(-c3ccccc3F)c2C)[n+]2ccc(N(C)C)cc2)c1 | -10% | 1% | ? | 16µM* | -5 | 15% |
| Cc1cc(C([O-])=C(C(=S)Nc2ccc(F)cc2)[n+]2ccccc2)c(C)n1-c1ccc(F)cc1 | -44% | . | ? | 8% | -13 | 49% |
| COC(=O)CNC(c1ccccc1)c1cc(Br)ccc1NC(=O)CCN1CCOCC1 (stereo not given) | i | -4% | 40µM* | 8% | 4 | 3% |
| CN(C)S(=O)(=O)N1CC=C(c2c[nH]c3ccccc23)CC1 | . | . | 18µM* | . | . | . |
| Cc1nc(N2CCS(=O)CC2)c2cc(-c3ccccc3)sc2n1 | . | . | -29% | . | . | . |
| CC(=O)Nc1ccc(S(=O)(=O)NC2C3(C)CCC(C3)C2(C)C)cc1 (stereo not given) | -10% | 2% | 3.2µM* | 2% | 6 | 5% |
| O=C(C=C(O)c1ccc(Cl)cc1)C(=O)NNC(=O)C(O)(c1ccccc1)c1ccccc1 | i | . | 14µM* | -2% | -29 | 1% |
| CCN1/C(=C\C(=S)Nc2ccccc2)Sc2ccccc21 | -21% | -52% | 32µM* | ? | -14 | 6% |
| COc1cc(Nc2nc3ccccc3nc2C(=O)OC(C)C)cc(OC)c1 | . | . | 6.3µM* | . | . | . |
| CCCN1CCN(C(=O)CCS(=O)(=O)c2cc3c(cc2Cl)NC(=O)CO3)CC1 | i | -3% | 28% | 1% | 10 | 25% |
| CNc1nc(-c2ccccc2C)nc2ccccc12 | . | . | 40µM* | 0% | . | . |
| O=C(Nc1ccc(N2CCN(C(=O)c3cccs3)CC2)cc1)c1ccc([N+](=O)[O-])o1 | . | 29% | 77% | . | . | . |
| O=C(Nc1nc(-c2cccs2)cs1)c1ccc([N+](=O)[O-])o1 | -31% | . | ? | 1% | -82* | -3% |
| COc1cc(NC(=O)c2cccs2)ccc1NC(=O)Cc1ccccc1 | i | -15% | 9% | -1% | 3 | -5% |
| O=C(Nc1cccc(NC(=O)c2cccs2)c1)c1ccc([N+](=O)[O-])o1 | -9% | 29% | -6% | 0% | -89* | 0% |
| COc1cc(NC(=S)NC(=O)c2ccc(C(C)(C)C)cc2)ccc1NC(=O)c1cccs1 | i | -10% | 6.3µM* | -2% | 5 | 1% |
| COc1cc(NC(=O)c2ccc([N+](=O)[O-])o2)ccc1NC(=O)c1cccs1 | -3% | 8% | 5% | 1% | -102* | 3% |
| CC1(C(=O)NCc2ccc3c(c2)OCO3)CCN1Cc1csc2ccccc12 (stereo not given) | i | . | 3% | -1% | . | . |
| O=C(Nc1cccc(N2C(=O)C=CC2=O)c1)c1cccs1 | . | . | 35µM* | . | . | . |
| Cc1nc2ccccc2c(=O)n1-c1cccc(NC(=O)c2cccs2)c1 | -25% | . | 5% | -3% | 18 | 10% |
| CC(=O)OCC1(C)CN(c2ccccc2)N(C(C)=O)C1=O (stereo not given) | -3% | -15% | -15% | 0% | 32 | 8% |
| CC(=O)OCC1(C)CN(c2ccccc2)NC1=O (stereo not given) | i | -16% | 40µM* | -1% | ? | 9% |
| CCCNC(=O)C1(C)CCCN(C(=O)C(c2ccccc2)c2ccccc2)C1 (stereo not given) | i | . | -13% | 1% | . | . |
| Cc1ccc(-n2c(CNc3cccc(Cl)c3)n[nH]c2=S)cc1 | i | -14% | ? | 2% | 8 | 2% |
| Cc1ccc(-n2c(CNc3ccc(C)c(Cl)c3)n[nH]c2=S)cc1 | -24% | -9% | 45µM* | 8% | -6 | -3% |
| CCOc1nc(-c2ccc(OC)cc2)ccc1-c1noc(C)n1 | -28% | -7% | 7% | -2%[38.3 µM] | -5 | -1% |
| COc1ccc(-c2ccc(-c3noc(C)n3)c(OC)n2)cc1 | i | -30% | 28% | 16µM* | 5 | -3% |
| CCc1cc2cccc(C)c2nc1SCC(=O)c1ccc(NC(C)=O)cc1 | i | -10% | 6% | . | 6 | . |
| COc1ccc(NC(=O)c2cccnc2NCCc2ccccc2)cc1 | -15% | -19% | 45µM* | ? | 1 | -10% |
| CC1=C(C(=O)N2CCOCC2)CC(CC(=O)NCC2CCCCC2)C(=O)N1CCCN1CCCC1=O (stereo not given) | -17% | . | 2% | 2% | . | . |
| O=C(O)C(c1c[nH]c2cc(Cl)ccc12)N1CCN(Cc2ccccn2)CC1 (stereo not given) | . | . | -1% | . | . | . |
| O=C(O)C(c1c[nH]c2ccccc12)N1CCN(Cc2ccc(Cl)cc2Cl)CC1 (stereo not given) | . | . | -5% | . | . | . |
| O=C(O)C(c1c[nH]c2cc(Br)ccc12)N1CCN(Cc2ccc(Cl)cc2Cl)CC1 (stereo not given) | . | . | 40µM* | . | . | . |
| O=C(O)C(c1c[nH]c2cc(Cl)ccc12)N1CCN(C(c2ccccc2)c2ccccc2)CC1 (stereo not given) | . | . | 7.9µM* | . | . | . |
| CC(OC(=O)c1cc(Br)ccc1O)C(=O)Nc1ccc(S(=O)(=O)N2CCCC2)cc1 (stereo not given) | -59% | . | -24% | 16µM* | 5 | . |
| Cc1cc(C(=O)Nc2sc3c(c2C#N)CCC3)no1 | -31% | -4% | ? | 14%[38.3 µM] | -5 | 1% |
| Cc1cc(C(=O)Nc2sc3c(c2C#N)CCCC3)no1 | -21%[57.5 µM] | 12% | 35µM* | ? | -16 | -2% |
| N#Cc1c(NC(=O)/C=C/c2ccco2)sc2c1CCCC2 | i | -29% | 35µM* | 23% | 6 | . |
| O=C(/C=C/c1ccco1)Nc1sc2c(c1C(=O)O)CCC2 | -60%[57.5 µM] | 5% | ? | 10%[38.3 µM] | -11 | 1% |
| CCOC(=O)Nc1ccc2c(CN3C(=O)CCC3=O)cc(=O)oc2c1 | . | . | 45% | . | . | . |
| Cc1cc(C(=O)N2CCCC(Nc3ccc(C)c(C)c3)C2)nc(C)n1 (stereo not given) | i | . | -4% | 1% | . | . |

One compound at a time (already shown). Order of screens: PTHR1 agonist, miR-21 reporter, ALOX12 inh, PINK1 modulator, Giardia kill, ERG-DNA inh
COc1cccc(NC(=S)/C(=C(\[O-])c2cc(C)n(-c3ccccc3F)c2C)[n+]2ccc(N(C)C)cc2)c1 is entered as -10%, 1%, ?, 16µM*, -5, 15%
CCN1/C(=C\C(=S)Nc2ccccc2)Sc2ccccc21 is entered as -21%, -52%, 32µM*, ?, -14, 6%
O=C(O)C(c1c[nH]c2cc(Cl)ccc12)N1CCN(Cc2ccccn2)CC1 (stereo not given) is entered as ., ., -1%, ., ., .
Cc1cc(C(=O)Nc2sc3c(c2C#N)CCCC3)no1 is entered as -21%[57.5 µM], 12%, 35µM*, ?, -16, -2%
c1ccc2cc(CN3CCN(Cc4c[nH]c5ccccc45)CC3)ccc2c1 is entered as ., ., 1.8µM*, ., ., .
